The data set can be described thus: Cleavage studies in rat blood to give the parent acid 6. Type of data set: in vitro ADME. To be noted: rat blood (EDTA), 0.01 mg/mL, 37° C. Here is the method: The sample was diluted to a volume of 1 mL by addition of 0.1 M aqueous KH2PO4. […] An Oasis MAX cartridge (1 cc/30 mg) was conditioned with 1 mL MeOH and 1 mL water successively. The supernatant was transferred to the conditioned cartridge at a flow rate of 1-2 mL/min. […] The extracts were transferred to autosampler vials and immediately analysed by LC/MS. […] LCMS was performed on a Bruker Daltonics Esquire 3000+ mass spectrometer equipped with an electrospray source coupled to the HPLC. […] Injection volume: 0.05 mL. HPLC was performed on a Waters Symmetry C8 3.5 micron column, 50 mm×2.1 mm, running a mobile phase of: mobile phase A: 0.1% formic acid in water; mobile phase B: 0.1% Formic acid in acetonitrile; flow rate: 1 mL/minute. […] Fragmentation of this molecular species results in a spectrum with intense ions at m/z 271 and 412. The daughter ion at m/z 412 can be ideally selected for quantification.

Here are results for one substance from US20090312316A1, “NOVEL COMPOUNDS” (priority 2006, published 2009).

With “17-des(cyclopentane-2-carboxylic acid)-17-(cyclobutane-2-carboxylic acid)borrelidin (2-(2-hydroxyethyl)pyridine ester [Compound 8]”, the “half-life for the cleavage to parent compound 6” value was “too rapid to calculate”. Further, the “cleavage to give the parent compound 6” value (up to 180 minutes) was “rapidly cleaved”.
